This passage reports Kd results from patent US5610310A, “Cyclic lipid derivatives as potent PAF antagonists” (Pohang Iron & Steel Co., Ltd, priority 1995, dated 1997).

Protein sequences, listed by entry. Tags and fused reporters are not part of them. Residues count along the entry.
UniProt G1TEI7, 1-342: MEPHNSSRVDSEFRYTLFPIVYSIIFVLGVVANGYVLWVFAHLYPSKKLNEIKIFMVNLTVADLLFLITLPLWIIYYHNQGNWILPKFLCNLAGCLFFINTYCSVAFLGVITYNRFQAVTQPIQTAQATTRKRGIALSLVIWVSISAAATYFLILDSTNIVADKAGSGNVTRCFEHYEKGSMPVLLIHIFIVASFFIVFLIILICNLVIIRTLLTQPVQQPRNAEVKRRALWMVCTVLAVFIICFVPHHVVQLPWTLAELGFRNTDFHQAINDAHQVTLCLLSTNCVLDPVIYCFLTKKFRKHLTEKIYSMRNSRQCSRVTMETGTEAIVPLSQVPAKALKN

In this assay the target is PAF receptor (rabbit platelet membranes) (Oryctolagus cuniculus, UniProt G1TEI7). The experiment in a line: PAF Receptor Binding Assay. The following applies: read-out: Kd of [^3 H]PAF used in the Ki calculation; value inserted in the Cheng equation; tested as the radiolabelled form.

As for `CCCCCCCCCCCCCCCCCCOC[C@H](COP(=O)([O-])OCC[N+](C)(C)C)OC(C)=O`, the Kd was 0.6 nM.

The term Kd denotes the constant that tells how readily two partners part at equilibrium.
